Test results from US5180678A, “Uses of substantially pure interleukin-9 receptor” (Ludwig Institute for Cancer Research, priority 1992, dated 1993).

B1: IL-3: interleukin tested as competitor of IL-9 binding (protein, UniProt P08700 20-152, looked up)
Interleukin-3: APMTQTTPLKTSWVNCSNMIDEIITHLKQPPLPLLDFNNLNGEDQDILMENNLRRPNLEAFNRAVKSLQNASAIESILKNLLPCLPLATAAPTRHPIHIKDGDWNEFRRKLTFYLKTLENAQAQQTTLSLAIF

Biological target: T1, IL-9R (Mus musculus, UniProt Q01114)
T1 sequence (Q01114 38-468): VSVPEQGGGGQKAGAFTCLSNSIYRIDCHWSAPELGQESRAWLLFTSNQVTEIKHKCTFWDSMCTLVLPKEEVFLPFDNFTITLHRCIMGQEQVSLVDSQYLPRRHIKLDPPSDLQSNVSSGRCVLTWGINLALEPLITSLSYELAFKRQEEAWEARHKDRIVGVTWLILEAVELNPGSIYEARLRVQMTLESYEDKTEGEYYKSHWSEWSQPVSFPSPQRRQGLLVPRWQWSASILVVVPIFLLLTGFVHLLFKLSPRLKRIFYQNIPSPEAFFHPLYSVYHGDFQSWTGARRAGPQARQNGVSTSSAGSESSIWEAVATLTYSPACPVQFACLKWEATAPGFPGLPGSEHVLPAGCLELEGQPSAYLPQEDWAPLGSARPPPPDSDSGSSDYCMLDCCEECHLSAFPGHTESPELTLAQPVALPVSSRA
Assay: Competitive binding of radiolabelled rIL-9 to TS1 cells (specificity of IL-9 binding)
Design: a number of different cell types were tested for the presence of the IL-9R molecule; endogenous in cells
Settings: labelled rIL-9 6.1×10^-10 M, 10^6 TS1 cells, 3 h 4° C., no competitor 4083 ± 16
Procedure: In order to test whether the radioactive IL-9 would bind to TS1 cells which are mouse cells, which are IL-9 dependent, a competitive assay was carried out. Specifically, rIL-9 was incubated with TS1 cells in 140 ul of DMEM containing BSA (10 mg/ml) and Na3 N (10 mM). In order to determine the level of binding, a 100 fold excess of "cold", i.e., non-radiolabelledIL-9, was also mixed with the material. The rIL-9 was admixed at 6.1×10^-10 M, for three hours at 4° C., with 10^6 TS1 cells. Bound material was separated from free ligand via centrifugation over a layer of dibutyl and dioctyl phthalate (15:I). In addition, the experiments were repeated using various interleukins, interferon-γ ("INF-γ"), tumor necrosis factor ("TNF"), and granulocyte, macrophage colony stimulating factor ("GM-CSF"). All experiments were carried out in triplicate.

| Molecule | Bound Radioactivity (competitor 9.3 × 10^-8 M) [cpm] | Bound Radioactivity (competitor 5.0 × 10^-8 M) [cpm] |
| --- | --- | --- |
| IL-2: interleukin tested as competitor of IL-9 binding | 4255 ± 237 | – |
| B1 | – | 4471 ± 7 |
